The text below walks through data of patent EP4772192A1 (Suzhou Pro-Heal Pharmaceuticals Technology Co., Ltd., dated 2026).

In general, IC50 refers to the point on the concentration scale where inhibition reaches its midpoint. As a reminder, the EC50 is the midpoint of the concentration-response curve.

The target of assay [1] is T1, human IGF-1R (insulin-like growth factor 1 receptor), stably over-expressed on cells (human, UniProt P08069 31-1367). Kind of assay: cell-based or functional assay.
Assay [2] deals with T1, human IGF-1R (insulin-like growth …). Description: FACS blocking on HEK293T / human IGF-1R cells; competitor biotinylated human IGF-1.
Assay [3] shares this target. Description: flow cytometry on HEK293T cells stably over-expressing human IGF-1R; table head calls the EC50 equivalent to KD. In general terms: Flow cytometry measures light scatter and fluorescence of single cells or particles in a stream.

B1: anti-IGF-1R antibody AB9 (antibody, V domains shown)
VH: QVQLQESGPGLVKPSGTLSLTCAVSGGSISSSNWWSWVRQPPGKGLEWIGEIYHSGSTNYNPSLKSRVTISVDKSKNQFSLKLSSVTAADTAVYYCARWTGRTDAFDIWGQGTMVTVSS
VL: not shown
Consider B1, for which the “IC50 of inhibition of proliferation of 3T3 / IGF-1R cells (CCK8)” value in assay [1] came out at 61.6 nM. The molecule also displayed an IC50 in assay [2] of 4.27 nM. Further, the EC50 in assay [3] was 1.76 nM.

B2: anti-IGF-1R antibody AB12 (antibody, V domains shown)
VH: EVQLLESGGGLVQPGGSLRLSCAASGFTFSIYRMQWVRQAPGKGLEWVSGISPSGGTTWYADSVKGRFTISRDNSKNTLYLQMNSLRAEDTAVYYCARWSGGSGYAFDIWGQGTMVTVSS
VL: DIQMTQSPLSLSASVGDRVTITCQASRDIRNYLNWYQQKPGKAPKLLIYDASSLQTGVPSRFGGSGSGTDFSFTIGSLQPEDIATYYCQQFDSLPHTFGQGTKLEIK
Take B2: in assay [1], the “IC50 of inhibition of proliferation of 3T3 / IGF-1R cells (CCK8)” value was 20.4 nM. The molecule further gave an IC50 in assay [2] of 2.52 nM. Besides, the EC50 in assay [3] is 1.21 nM.

B3: anti-IGF-1R antibody AB2 (antibody, V domains shown)
VH: EVQLLESGGGLVQPGGSLRLSCTASGFTFSSYAMNWVRQAPGKGLEWVSAISGSGGTTFYADSVKGRFTISRDNSRTTLYLQMNSLRAEDTAVYYCAKDLGWSDSYYYYYGMDVWGQGTTVTVSS
VL: DIQMTQFPSSLSASVGDRVTITCRASQGIRNDLGWYQQKPGKAPKRLIYAASRLHRGVPSRFSGSGSGTEFTLTISSLQPEDFATYYCLQHNSYPCSFGQGTKLEIK
As for B3, the “IC50 of inhibition of proliferation of 3T3 / IGF-1R cells (CCK8)” value in assay [1] came out at 133 nM. The molecule also returned an IC50 in assay [2] of 4.32 nM. The EC50 in assay [3] is 2.52 nM.

B4: anti-IGF-1R antibody AB8 (antibody)
chain 1: QVQLVQSGAEVVKPGASVKLSCKASGYTFTSYWMHWVKQRPGQGLEWIGEINPSNGRTNYNQKFQGKATLTVDKSSSTAYMQLSSLTSEDSAVYYFARGRPDYYGSSKWYFDVWGQGTTVTVSS
chain 2: DVVMTQTPLSLPVSLGDPASISCRSSQSIVHSNVNTYLEWYLQKPGQSPRLLIYKVSNRFSGVPDRFSGSGAGTDFTLRISRVEAEDLGIYYCFQGSHVPPTFGGGTKLEIK
Consider B4, for which the “IC50 of inhibition of proliferation of 3T3 / IGF-1R cells (CCK8)” value in assay [1] was found to be 7.6 nM. Further, in assay [2], the half-maximal inhibitory concentration (IC50) turned out to be 0.97 nM. Also, the EC50 in assay [3] was 0.21 nM.

B5: anti-IGF-1R antibody AB11 (antibody, V domains shown)
VH: QVQLQESGGGVVQPGRSLRLSCSASGFTFSDYYMYWVRQAPGKGLEWVAYITNYGGSTYYPDTVKGRFTISRDNAKNTLFLQMDSLRPEDTGVYFCARQSNYDYDGWFAYWGQGTPVTVSS
VL: DIQLTQSPSSLSASVGDRVTITCKASQEVGTAVAWYQQKPGKAPKLLIYWASTRHTGVPSRFSGSGSGTDFTFTISSLQPEDIATYFCQQYSNYPLTFGQGTKVEIK
B5: the “IC50 of inhibition of proliferation of 3T3 / IGF-1R cells (CCK8)” value in assay [1] stood at 9.11 nM. Moreover, the IC50 in assay [2] came to 3.72 nM. Further, the EC50 in assay [3] came out at 1.62 nM.

B6: anti-IGF-1R antibody AB10 (antibody, V domains shown)
VH: DVQLQESGPELMKPSQIVSLTCKLSGYSVTGMHWNWIRQVSESKLEWIGYISSGSTDYNPSLKSRISITSETSKNQLFLQLNIVTTEDIATYYCARGSVEPYTHWGQGTLVTVSA
VL: QIVLTQSPAIMSRVVGEKVTMTCSASSHWHSYMHWYQQKPGSSPSLYIYDTINLMTGVPARFSGSRSGTSYSLTIVSMEREDAATYYCQQITGYPSVAEFGAGTKLEIK
As for B6, the “IC50 of inhibition of proliferation of 3T3 / IGF-1R cells (CCK8)” value in assay [1] was 16.6 nM. For the same molecule, in assay [2], the IC50 was determined as 5.31 nM. In addition, in assay [3], the EC50 turned out to be 3.18 nM.

B7: anti-IGF-1R antibody AB1 (antibody, V domains shown)
VH: QVQLQESGPGLVKPPGTLSLTCALSGYSVTGMHWGWVRQPPGKGLEWIGYISSGSTDYNPSLKSRVTISSDTSKNQLSLKLSSVTAADTAVYYCARGSVEPYTHWGQGTLVTVSS
VL: EIVLTQSPATLSLSPGERATLSCSASSHWHSYMHWYQQKPGQAPRLLIYDTINLMTGIPARFSGSRSGTDYTLTISSLEPEDAAVYYCQQITGYPSVAEFGQGTKLEIK
As to B7, the “IC50 of inhibition of proliferation of 3T3 / IGF-1R cells (CCK8)” value in assay [1] came to 8.25 nM. Also, in assay [2], the IC50 stood at 1.72 nM. In addition, the EC50 in assay [3] amounted to 0.97 nM.

B8: anti-IGF-1R antibody AB4 (antibody, V domains shown)
VH: EVQLVQSGAEVKKPGSSVKVSCKASGGTFSSYAISWVRQAPGQGLEWMGGIIPIFGTANYAQKFQGRVTITADKSTSTAYMELSSLRSEDTAVYYCARAPLRFLEWSTQDHYYYYYMDVWGKGTTVTVSS
VL: SSELTQDPAVSVALGQTVRITCQGDSLRSYYATWYQQKPGQAPILVIYGENKRPSGIPDRFSGSSSGNTASLTITGAQAEDEADYYCKSRDGSGQHLVFGGGTKLTVL
For the molecule B8, the “IC50 of inhibition of proliferation of 3T3 / IGF-1R cells (CCK8)” value in assay [1] was determined as 89.1 nM. In assay [2], this molecule registered an IC50 of 1.03 nM. In addition, in assay [3], the EC50 is 0.57 nM.

B9: anti-IGF-1R antibody AB6 (antibody, V domains shown)
VH: EVQLVQSGGGLVKPGGSLRLSCAASGFTFSSFAMHWVRQAPGKGLEWISVIDTRGATYYADSVKGRFTISRDNAKNSLYLQMNSLRAEDTAVYYCARLGNFYYGMDVWGQGTTVTVSS
VL: EIVLTQSPGTLSVSPGERATLSCRASQSIGSSLHWYQQKPGQAPRLLIKYASQSLSGIPDRFSGSGSGTDFTLTISRLEPEDFAVYYCHQSSRLPHTFGQGTKVEIK
On to B9, for which the “IC50 of inhibition of proliferation of 3T3 / IGF-1R cells (CCK8)” value in assay [1] stood at 220 nM. In assay [2], the IC50 turned out to be 6.52 nM. Moreover, in assay [3], the EC50 is 2.29 nM.
